Assay results as given in publication PMC11254172 (International Journal for Parasitology: Drugs and Drug …, 2024).

Columns and labels:
[1] = tested on: T. gondii TgShSp1 oocysts; settings: for Number of pregnant mice / Fertility rate (%) / Total number of pups/group: CD1 mice, 100 TgShSp1 oocysts; for Postnatal mortality rate / Neonatal mortality rate: pups; for Postnatal mortality rate: until 30 days p.p.; for Neonatal mortality rate: within first 2 days after birth; for Number of seronegative mice: n = 12; for Seropositive for Tg (number of mice): 12 mice/group, serum IgG ELISA
[2] = tested on: N. caninum NcSpain-7 tachyzoites; settings: in vivo
[3] = tested on: human foreskin fibroblasts (HFF); settings: resazurin reduction assay
[4] = 20 mg/kg/day x 5 days, real-time PCR

SMILES: CC(C)(CO)Cn1nc(-c2ccc3cc(OC4CC4)ccc3c2)c(C(N)=O)c1N [BKI-1708]
- Vertical transmission rate (%) ([1]; 5 mg/kg/day oral x 5 days): 98%
- Number of pregnant mice ([1]; 5 mg/kg/day oral x 5 days from 2 days post-infection): 11/12
- Fertility rate (%) ([1]; 5 mg/kg/day oral x 5 days): 91.6%
- Total number of pups/group ([1]; 5 mg/kg/day oral x 5 days): 132
- Postnatal mortality rate ([1]; 5 mg/kg/day oral x 5 days): 1.3%
- Neonatal mortality rate ([1]; 5 mg/kg/day oral x 5 days): 43.1%
- Cerebral parasite load in dams and non-pregnant mice vs positive control ([1]; 5 mg/kg/day x 5 days, real-time PCR): less profoundly diminished
- Anti-Toxoplasma IgG titers vs non-treated positive control ([1]; 5 mg/kg/day, ELISA): similar
- Number of seronegative mice ([1]; 5 mg/kg/day): 2
- Seropositive for Tg (number of mice) ([1]; 5 mg/kg): 10
- Vertical transmission rate (%) ([1]; 20 mg/kg/day oral x 5 days): 16%
- Number of pregnant mice ([1]; 20 mg/kg/day oral x 5 days from 2 days post-infection): 7/12
- Fertility rate (%) ([1]; 20 mg/kg/day oral x 5 days): 58.3%
- Total number of pups/group ([1]; 20 mg/kg/day oral x 5 days): 90
- Postnatal mortality rate ([1]; 20 mg/kg/day oral x 5 days): 1.1%
- Neonatal mortality rate ([1]; 20 mg/kg/day oral x 5 days): 0%
- Reduction of the numbers of congenitally infected pups compared to the controls ([1]; 20 mg/kg/day x 5 days, T. gondii): 84%
- Cerebral and ocular parasite loads in non-pregnant mice and dams vs control groups [1, 4]: significantly reduced
- Cerebral parasite load in dams and non-pregnant mice vs positive control [1, 4]: highly reduced
- Anti-Toxoplasma IgG response vs positive control, dams ([1]; 20 mg/kg/day, ELISA, dams): but not in dams
- Anti-Toxoplasma IgG response vs positive control, non-pregnant mice ([1]; 20 mg/kg/day, ELISA, non-pregnant mice): significantly decreased
- Number of seronegative mice ([1]; 20 mg/kg/day): 1
- Seropositive for Tg (number of mice) ([1]; 20 mg/kg): 11
- Fertility rate (%) ([2]; female, BALB/c, mouse): 57.1%
- Number of pregnant mice ([2]; female, BALB/c, mouse): 8/14
- Total number of pups/group ([2]; female, BALB/c, mouse): 46
- Cerebral parasitic burden in pregnant and non-pregnant mice vs positive control [2]: evidently reduced
- Impact of treatment on fertility or reproductive parameters [2]: no impact on fertility or reproductive parameters
- Mice in which Neospora-specific IgG could not be detected [2]: 2 of the 14
- Neonatal mortality rate [2]: 8.7%
- PCR status of surviving pups [2]: all surviving pups were PCR-negative
- Postnatal mortality rate [2]: 33% and 33.4%
- Reduction of the numbers of congenitally infected pups compared to the controls [2]: 62%
- Seropositive for Nc (number of mice) [2]: 12
- Concentrations at which HFF viability was not impaired (up to) [3]: up to 25 μM
- HFF viability not affected [3]: >25 µM

Values joined by “and” are separate entries in the source; they are usually repeats but may differ in a detail not shown here. Equal values may be shown once. Read-outs that look alike come from different tables or passages of the source.
